Laboratory results taken from publication PMC10606955 (Chemico-biological interactions, 2023).

Legend:
[1] = molecular target: T1, carboxylesterase 1 (CES1) (Homo sapiens, UniProt P23141); test: Time-dependent inhibition of CES1; assay type: biochemical; conditions: mean ± S.E., 200 μM OST
T1 sequence (P23141 18-567): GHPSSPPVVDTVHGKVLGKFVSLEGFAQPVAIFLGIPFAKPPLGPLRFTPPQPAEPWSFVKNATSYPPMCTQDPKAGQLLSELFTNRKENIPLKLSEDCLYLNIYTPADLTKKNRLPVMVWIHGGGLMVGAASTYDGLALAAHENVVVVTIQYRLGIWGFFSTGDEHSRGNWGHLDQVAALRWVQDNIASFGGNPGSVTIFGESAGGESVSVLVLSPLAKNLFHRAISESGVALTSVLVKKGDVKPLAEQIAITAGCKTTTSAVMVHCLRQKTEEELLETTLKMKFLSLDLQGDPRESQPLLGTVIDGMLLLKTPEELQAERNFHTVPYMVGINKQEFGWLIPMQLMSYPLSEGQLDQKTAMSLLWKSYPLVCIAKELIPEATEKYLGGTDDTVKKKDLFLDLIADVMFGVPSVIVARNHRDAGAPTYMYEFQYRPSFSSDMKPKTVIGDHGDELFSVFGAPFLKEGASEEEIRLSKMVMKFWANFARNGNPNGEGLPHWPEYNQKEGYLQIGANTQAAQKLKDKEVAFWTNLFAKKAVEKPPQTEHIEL

[2] = molecular target: T1, carboxylesterase 1 (CES1); test: Concentration response curves for inhibition of CES1; assay type: biochemical; conditions: read-out: IC50 (kratom alkaloids); alkaloid 0–128 μM, 200 μM OST, 1% DMSO, CES1 S9
Method in brief: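 CES1 S9 (supernatant, 9000g, from sonicated Flp-In-293 cells expressing wild-type CES1) at 20 μg/mL in 50 mM phosphate buffer. Test compound at 0–128 μM, or extracts at 0–128 μg/mL, in 1% DMSO with 200 μM oseltamivir, 15 min at 37°C. Stopped with 4 volumes acetonitrile containing ritalinic acid internal standard. Oseltamivir carboxylate measured by LC-MS/MS and expressed relative to DMSO control; IC50 fitted by modified Hill equation.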

With corynantheidine the IC50 ([1]; No preincubation) was 32.3 ± 3.64 µM, the IC50 ([1]; Preincubation 30 min with CES1 S9) was 32 ± 5.37 µM and the IC50 [2] was 32.3 µM and < 50 µM.

Values joined by “and” are separate entries in the source; they are usually repeats but may differ in a detail not shown here. Equal values may be shown once.
